Among the data in ChEMBL document CHEMBL4680083, “Identification of Tricyclic Agonists of Sphingosine-1-phosphate Receptor 1 (S1P) Employing Ligand-Based Drug Design” (J Med Chem, 2016) are Ratio EC50 values, retold here.

This assay can be described thus: Selectivity index, ratio of EC50 for agonist activity at human S1P3 expressed in CHO cell membranes to EC50 for agonist activity at human S1P1 expressed in CHO cell membranes. The class given is cell-based.

As to `O=C(O)C1CN(Cc2ccc3c(c2)CCc2c-3noc2-c2onc(-c3ccccc3)c2C(F)(F)F)C1`, the Ratio EC50 was found to be 7500.

In the case of `O=C(O)C1CN(Cc2ccc(-c3noc(-c4onc(-c5ccccc5)c4C(F)(F)F)n3)cc2)C1`, the Ratio EC50 came out at 3400.
